OPERA 2.9 data: water solubility values

Source: data files of OPERA 2.9 (Mansouri et al.), github.com/kmansouri/OPERA.

Solubility in water is on a log10 molar scale (set defined at 25 °C).

log solubility (log10 mol/L),SMILES
-4.132,CC(=O)C(N=Nc1ccc(C(=O)O)cc1)/C(O)=N\c1ccccc1 (stereo partly drawn)
-4.429,Nc1nc2[nH]cnc2c(=O)[nH]1
-1.33,COc1ccc(NC(=O)N(C)C)cc1
-2.28,Nc1c2[nH]cnc2nc[n+]1[O-]
-3.079,NS(=O)(=O)c1ccccc1-c1nc2ccccc2c(=O)[nH]1
-2.439,O=C(O)c1cc2ccccc2cc1O
-2.696,O=C(O)c1ccccc1C(=O)c1ccc(O)cc1O
-2.832,C1=Cc2ccccc2C1
-3.67,CC(C)c1cc(O)c(=O)ccc1Br
-1.738,N=C1C=CC(=Nc2ccccc2)C=C1
-7.14,Clc1ccc(Oc2cc(Cl)cc(Cl)c2Cl)cc1
-2.186,CC(=O)Oc1ccccc1[N+](=O)[O-]
-3.92,O=C(O)CCCCCCC(C(=O)O)(c1ccccc1)c1ccccc1
-3.496,CC(=O)O[C@@H]1C[C@@H]2CC[C@@]1(C)C2(C)C
-3.13,N[C@@H](CCSSCC[C@H](N)C(=O)O)C(=O)O
-7.01,Clc1ccc(Oc2ccc(Cl)c(Cl)c2Cl)cc1
-6.405,CC(C)(C)CC(C)(C)C1CCC(=NO)C(=NO)C1 (centres undefined)
-6.26,CCCCCCCCc1c(CC)nc2ncnn2c1N
-2.313,Cc1nn(-c2ccccc2)c(=O)[c-]1/N=N/c1cc([N+](=O)[O-])ccc1[O-].Cc1nn(-c2ccccc2)c(=O)[c-]1/N=N/c1cc([N+](=O)[O-])ccc1[O-].[Cr+3].[H+]
-7.907,O=C(Nc1ccccc1)c1cc2ccccc2c(N=Nc2cc(Cl)ccc2Cl)c1O
-2.262,Cc1ccnc2ccccc12
-2.738,CC(C)COC(=O)c1cc(N)c(Cl)c(N)c1
-0.517,OCC(O)C(O)C(O)C(O)C(O)CO (centres undefined)
-0.922,O=C(NCCCCCCNC(=O)OCCO)OCCO
-2.36,CCc1nc2c(=O)[nH]c(=O)nc-2[nH]c1CC
-3.246,CC(Oc1c(Cl)cccc1Cl)C1=NCCN1 (centres undefined)
-7.27,Clc1cccc(Oc2cc(Cl)c(Cl)cc2Cl)c1
-7.64,Clc1ccc(Oc2cc(Cl)cc(Cl)c2Cl)c(Cl)c1
-2.696,NC(=O)NNC(N)=O
-1.822,Nc1ccc(Cl)cc1S(=O)(=O)O
-2.381,CC(=O)Nc1nc(=S)ss1
-5.596,Cc1ccc(N=Nc2c(N)nc(N)nc2O)c(S(=O)(=O)O)c1
-4.521,C=CCNc1nc(NCC=C)nc(N2CCN(C(c3ccc(F)cc3)c3ccc(F)cc3)CC2)n1
-1.816,CO[C@H](OC(C)=O)[C@H](OC(C)=O)[C@@H](OC(C)=O)[C@@H](COC(C)=O)OC(C)=O
-2.461,CCOc1ccc(N2C(=O)CCC2=O)cc1

A selection of 4 entries from above:

SMILES,log solubility (log10 mol/L)
CC(C)c1cc(O)c(=O)ccc1Br,-3.67
NS(=O)(=O)c1ccccc1-c1nc2ccccc2c(=O)[nH]1,-3.079
CCc1nc2c(=O)[nH]c(=O)nc-2[nH]c1CC,-2.36
CC(Oc1c(Cl)cccc1Cl)C1=NCCN1 (centres undefined),-3.246

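The numbers are reported measurements, compiled and curated for the OPERA QSAR suite. The files give a single number for a compound and property, which may rest on several reports. Conditions of the individual experiments are not part of the data. Where a salt, mixture or single isomer is drawn, the source does not say that exactly this form was tested. Some upstream entries may be estimates or bounds without being marked so.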